Measurements reported in ChEMBL document CHEMBL2177096, “Sulfonyl fluoride inhibitors of fatty acid amide hydrolase” (J Med Chem, 2012).

Test: Inhibition of rat FAAH deltaTM mutant expressed in Escherichia coli using AAMCA as substrate after 15 mins by medium throughput fluorescent assay

O=S(=O)(F)CCCCCCCc1ccc(OCc2ccccc2)cc1
IC50: 3.7 nM
